The source of these data is US20120283274A1, “CRYSTALLINE FORMS OF SUBSTITUTED PYRAZOLOPYRIMIDINES” (priority 2009, published 2012).

The nature of the data set: Determination of aqueous solubility (HPLC). The conditions noted are these: 23° C.

In general, Solubility refers to the concentration that dissolves in the medium under given conditions. Low readings indicate little dissolved substance, high ones much dissolved substance. On to “co-crystal of (6-bromo-pyrazolo[1,5-a]pyrimidin-2-yl)-(1(R)-methyl-3,4-dihydro-1H-isoquinolin-2-yl)-methanone and succinic acid [Example 2a]”, for which, where the note is “filtrate of the aqueous suspension after 24 hours”, the “pH of the filtrate” value is listed as 3.1. In addition, the “solid form after solubility test (FT-Raman compared with the spectrum before)” value (solid after 24 hours in water) is on record as “no change in form”. The Solubility (suspended in water, 24 hours, concentration of the free base by HPLC) turned out to be 0.02 mg/mL.
